Assay results reported in patent publication US5789625A, “Metal-ligand complex catalyzed processes” (priority 1996, dated 1998).

Test: Stability of Ligand F in butyraldehyde solution containing rhodium, by HPLC (Examples 2-4)
Type: physicochemical
Settings: 0.018 grams phosphorous acid and 0.0337 grams benzimidazole added

SMILES: CC(C)(C)c1cc(-c2cc(C(C)(C)C)cc(C(C)(C)C)c2Op2oc3ccccc3c3ccccc3o2)c(Op2oc3ccccc3c3ccccc3o2)c(C(C)(C)C)c1 [Ligand F]
- decomposition of Ligand F (24 hours): No decomposition
- decomposition of Ligand F (72 hours): No decomposition
